Values quoted from earlier work in patent publication US6310176A, “Antimicrobially active polypeptides” (SBL Vaccin AB, priority 1996, dated 2001).

Conditions: background, literature; cited from earlier work

## ranalexin
  Hemolytic activity (in words): high hemolytic activity
